Test system: O=P(O)(O)O
Experiment: cells, lysate or membranes
Details: intact delta-Pst2 cells grown 24 h in Pi-limiting BG-11; room temperature; transport Km

## Pst1 (Synechocystis sp. PCC 6803 substr. Kazusa)
  Km: 5.16 µM

Source: article PMC3199254
